These results are taken from patent US20110301159A1, “KINASE INHIBITOR COMPOUNDS” (UNIVERSITY OF SOUTH FLORIDA, priority 2008, published 2011).

A short description of data set [1]: Aqueous solubility (MultiScreen Solubility Filter Plate). The format is physicochemical. The protocol:
Methods: Jak2-V617F expressing Human Erythroleukemia (HEL) cells were plated in 96 well plates at ˜40,000 cells per well and incubated with either vehicle control (0.25% DMSO) or with 25 uM of Jak2 kinase inhibitors. Viable cell numbers were then determined at the times (0, 4, 24, 48 and 72 hours) via trypan blue exclusion and a hemocytometer. Aqueous solubility was determined using a MultiScreen® Solubility Filter Plate (Millipore) (see Quantitative method to determine drug aqueous solubility: optimization and correlation to standard methods; http://www.millipore.com/techpublications/tech1/an1730en00) and a Spectrophotometer.

The test system of data set [2] is HEL cells. Nature of the data set: Jak2-V617F-induced hematopoietic disease in NOD-SCID mouse model (HEL cell injection). The format is in vivo, NOD-SCID mice. How it is done: Methods: In the experiment, NOD-SCID mice, N=36. were randomized into 6 groups (n=6). Baseline peripheral blood samples and weights were taken at Day 0. At day 7, 2×10^6 HEL cells were injected into each mouse in Groups 2, 3, 4 and 5. At day 28, Group 1 mice were completely naïve; Group 2 mice were dosed with DMSO; Group 3 mice were dosed with 0.1 mg/kg/day G6; Group 4 mice were dosed with 1.0 mg/kg/day G6; Group 5 mice were dosed with 10 mg/kg/day G6; Group 6 mice were dosed with 10 mg/kg/day G6, until day 49. Then all the mice were euthanized.
In the experiment, the following measurable endpoints were assessed. For peripheral blood, total white blood cell (WBC) counts, the percentage of blast cells, the percentage of nucleated red blood cells (RBC), and Hematocrits were measured. For bone marrow, quantitative cellularity, and Myeloid cell to erythroid cell (M:E) ratio were assessed. Further, toxicity in spleen, brain, kidney, liver, and lung using histological analysis is assessed.
Peripheral blood samples were obtained via weekly submandibular bleeds using a 21 gauge needle. Blood samples were smeared onto glass slides, stained, and dried. Peripheral blast cells on each slide were then tabulated using a pathology light microscope. The average percent of peripheral blast cells for each treatment group was then graphed as a function of time.
At necropsy, femurs from each animal were formalin fixed, de-calcified and then parrafin embedded. Parrafin sections were then made, stained with hematoxylin and eosin and dried. The number of myeloid and erythroid cells were then tabulated by a veterinary pathologist who was blind to the treatment groups. The ratio of myeloid to erythroid cells was then graphed as a function of treatment group. Further, the average number of mature and immature erythroid cells was then graphed as a function of treatment group.
Additionally, at necropsy, animals were weighed one final time and spleens were then removed from each mouse. The wet weight of each spleen was recorded and the spleen weight to body weight ratio was graphed as a function of treatment group.

The Aqueous Solubility is the dissolved amount per volume that the medium holds. A lower Aqueous Solubility goes with little dissolved substance. For “(Z) and (E)-4,4′-(Hex-3-ene-3,4-diyl)bis(2-((diethylamino)methyl)phenol) [Compound G6]”, the “Aqueous Solubility” value in data set [1] stood at 455 µM. For the same substance, the “ratio of Myeloid cells:Erythoid cells (bone marrow)” value in data set [2] (HEL cell injected mice, 0.1 mg/kg G6) came out at 0.3; in data set [2] (HEL cell injected mice, 1.0 mg/kg G6), 1.25; in data set [2] (HEL cell injected mice, 10 mg/kg G6) it was 1.2; in data set [2] (SCID mice without HEL cells, 10 mg/kg G6) it was 1.1. In data set [2] (mouse, in vivo), the “minimum dose reversing HEL cell induced decrease in ratio of Myeloid cells:Erythoid cells” value is 1 mg/kg/day. Moreover, in data set [2] (mouse, in vivo), the “spleen weight to body weight ratio” value is given as “reduces the spleen weight to body weight ratio”.

Take “(Z)- and (E)-4,4′-(But-2-ene-2,3-diyl)bis(2-((diethylamino)methyl)phenol) [NB-2]”: in data set [1], the “Aqueous Solubility” value came to 816 µM.
